# scFv variants of Ab-14 (heavy chain) against a SARS-CoV-2 spike peptide

Source: Engelhart et al. 2022 (doi:10.1038/s41597-022-01779-4), MIT Lincoln Laboratory and A-Alpha Bio; data file from the FLAb repository.

Target peptide (SARS-CoV-2 spike, HR2 region): PDVDLGDISGINAS

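AAYL49 was designed without a model: most single CDR substitutions and a random sample of double and triple ones. The scFvs were displayed on barcoded MATa yeast, the peptide on MATalpha yeast. Binding brings cells together so that they mate, and sequencing counts the barcode pairs among the diploids. Each replicate has its own calibration line, from reference interactions of the BCL2 family. There are three technical replicates.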

The variants keep the light chain, the linker and the frameworks of Ab-14 (scFv order VH, the linker GGGGSGGGGSGGGGS, VL).
VH: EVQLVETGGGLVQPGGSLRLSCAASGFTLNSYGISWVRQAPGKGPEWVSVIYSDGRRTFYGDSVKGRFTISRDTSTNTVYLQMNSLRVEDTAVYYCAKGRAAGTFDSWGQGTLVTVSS
VL: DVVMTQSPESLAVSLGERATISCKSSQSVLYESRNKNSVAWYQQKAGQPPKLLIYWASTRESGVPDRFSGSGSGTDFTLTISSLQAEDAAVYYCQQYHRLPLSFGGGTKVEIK

Changes read parent residue, position, new residue, counted from the first residue of the VH shown. The read-out is the apparent dissociation constant on a log10 scale (nM): the lower, the stronger. Replicates are averaged; those with no signal do not enter the mean. A pair that was not seen in that replicate is written "ND"; this usually means weak binding, but a binder can also be missed. Background: pairings of library AAYL49 with three empty control strains gave a value in 15% of cases (median 4.06, 5th percentile 2.83). Values in that range, when seen in few replicates, are hard to tell from nonspecific mating. The control count says in how many pairings with the empty strains this scFv gave a signal, with their mean in brackets.

changes,log10 Kd (nM) by replicate,"mean, log10 nM",empty controls
D62Y T104K,ND ND ND,ND,1/9 (2.99)
R57N D106G,2.85 2.89 ND,2.87,1/9 (2.92)
T58E G99V R100D,3.72 ND ND,3.72,3/9 (3.66)
I34V I51C G55F,ND ND ND,ND,0/9
Y32V R57C D62I,ND ND ND,ND,0/9
G26C R56D T104K,3.97 ND 3.78,3.88,5/9 (4.33)
S53W G55C R100P,ND ND ND,ND,0/9
V50F G99A A101E,4.04 4.04 4.50,4.19,8/9 (4.88)
G61L R100K G103V,ND ND ND,ND,1/9 (2.86)
S35Q G61N G99H,ND 5.14 4.65,4.90,5/9 (4.30)
F27P S63H G103W,ND ND 2.70,2.70,0/9
G55T T58Y S63R,ND ND ND,ND,0/9
L29R G33K F105T,ND ND ND,ND,0/9
I34N T58D F105N,ND 4.75 ND,4.75,3/9 (3.47)
D62C S63E K65F,ND 4.37 ND,4.37,2/9 (4.97)
Y52F G61C K65C,ND ND ND,ND,3/9 (3.65)
S31T I34T I51F,ND ND ND,ND,2/9 (2.85)
G61V S107F,1.29 1.26 1.54,1.36,0/9
T28L G33F K65H,ND ND ND,ND,0/9
G33E G55P A101W,ND ND ND,ND,0/9
S53Q D62M F105G,ND ND ND,ND,1/9 (2.29)
R57H K65D R100P,3.52 ND ND,3.52,2/9 (4.15)
S107V,1.68 2.20 2.47,2.12,0/9
G26D V50G T58H,ND ND 5.22,5.22,0/9
G26D V64G,4.57 3.77 3.94,4.09,1/9 (3.61)
F27Y S35A,ND ND ND,ND,0/9
I34W Y52C A102M,ND ND 3.88,3.88,2/9 (4.52)
G33I S63T A102H,6.49 4.70 ND,5.60,5/9 (4.97)
R57L A101V A102P,ND ND 3.00,3.00,2/9 (4.00)
S31L G55N F59Q,ND ND ND,ND,1/9 (2.84)
I34K I51P R100L,ND ND ND,ND,0/9
G26C D54H R100C,ND 3.76 ND,3.76,1/9 (5.82)

Excerpt, the final 4 entries:

changes	log10 Kd (nM) by replicate	mean, log10 nM	empty controls
R57L A101V A102P	ND ND 3.00	3.00	2/9 (4.00)
S31L G55N F59Q	ND ND ND	ND	1/9 (2.84)
I34K I51P R100L	ND ND ND	ND	0/9
G26C D54H R100C	ND 3.76 ND	3.76	1/9 (5.82)